# Values quoted from earlier work, collected in paper PMC12925725, “A potent nonapeptide inhibitor for the CXCL12/HMGB1 heterocomplex: A computational and experimental approach” (Computational and Structural Biotechnology Journal, 2025).
# Test system: HMGB1-mediated activation of TLR4
# Details: cited from earlier work
structure (smiles),measurement,value
CC[C@H](C)[C@H](NC(=O)[C@H](Cc1c[nH]c2ccccc12)NC(=O)[C@H](CCCNC(=N)N)NC(=O)[C@H](CCC(=O)O)NC(=O)[C@H](Cc1ccc(O)cc1)NC(=O)[C@H](Cc1c[nH]cn1)NC(=O)[C@H](Cc1ccc(O)cc1)NC(=O)CN)C(=O)N[C@@H](Cc1c[nH]cn1)C(=O)O,effect on HMGB1's ability to trigger TLR4,without impacting HMGB1's ability to trigger TLR4
